In US20250222051A1, “MU[…] ADJUVANT TREATMENT OF TUMOR, AND PREPARATION METHOD AND APPLICATION THEREOF” (Changde Jizhi Biological Technology Co., Ltd, priority 2024, published 2025):

Tested on: mouse H22 hepatoma cells
Details: body weight of H22 tumor-bearing mice at end; oxaliplatin 15 mg/kg tail vein once, products 0.45 g/kg intragastric

Compound: O=C1[O][Pt]2([NH][C@@H]3CCCC[C@H]3[NH]2)[O]C1=O [Oxaliplatin, oxaliplatin]
- Weight Final: 20.44 ± 1.23
